Measurements: US8859534B2, “2-carboxamide-7-piperazinyl-benzofuran derivatives” (AstraZeneca AB, priority 2009, dated 2014)

By UniProt entry, the sequences of proteins in these tests, tags left out.
UniProt P08908, whole entry: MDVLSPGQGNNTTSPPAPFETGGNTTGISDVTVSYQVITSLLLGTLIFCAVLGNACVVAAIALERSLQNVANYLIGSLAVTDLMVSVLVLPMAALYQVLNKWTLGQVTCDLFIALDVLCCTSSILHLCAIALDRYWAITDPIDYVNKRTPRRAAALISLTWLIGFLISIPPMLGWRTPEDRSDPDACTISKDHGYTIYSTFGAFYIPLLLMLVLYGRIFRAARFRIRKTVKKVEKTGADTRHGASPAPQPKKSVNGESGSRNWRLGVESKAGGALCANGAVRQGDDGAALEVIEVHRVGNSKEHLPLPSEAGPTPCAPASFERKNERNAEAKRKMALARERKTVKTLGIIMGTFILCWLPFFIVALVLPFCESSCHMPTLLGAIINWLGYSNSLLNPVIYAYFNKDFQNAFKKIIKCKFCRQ

These compounds were tested against 5-HT1A receptor (Homo sapiens (Human), UniProt P08908) (assay: 5-HT1A receptor competition binding assay (SPA, [3H]-8-OH-DPAT)). Settings: membranes of CHO cells expressing 5-HT1A receptors; radioligand [3H]-8-OH-DPAT 0.15-0.2 nM.
Description: Assays that were used to measure affinity of the compounds of the present invention for 5-HT1A and 5-HT1B receptors are described in J. Recept Signal Transduct. Res. 22:483-495 (2002) and Naunyn-Schmiedeberg's Arch Pharmacol. 356:328-334 (1997) and incorporated by reference herein. These assays were be used with some modifications:
For the binding assay stably transfected chinese hamster ovary (CHO) cell lines expressing 5-HT1A receptors or 5-HT1B receptors were harvested by centrifugation at 300×g for 10 min and resuspended in 10 mM Tris-HCl, 5 mM EDTA at pH 7.4. The cells were pooled, recentrifuged and resuspended before homogenisation using a Dounce homogeniser (“type B”). Cell membranes were centrifuged at 48 000×g for 10 min and then resuspended in harvesting buffer using an Ultra-Turrax T8 (IKA Labortechnik, Germany), aliquots were stored frozen in −70° C.
Frozen membrane preparations were thawed, homogenized with an Ultra-Turrax and mixed with SPA beads (YSI coated WGA, GE Healthcare/Amersham, Buckinghamshire, UK) in assay buffer containing 50 mM Tris-Base, 4 mM MgCl2, 4 mM CaCl2 (only 5-HT1B), 1 mM EDTA, and adjusted to pH 7.4 with HCl. […] The binding assays were performed in 384-well plates in a final volume of 90 μL/well with the following additions: 9 μL binding buffer; 1 μL compound/DMSO/nonspecific; 20 μL radioligand; and 60 μL beads/membrane mixture. Non-specific binding was defined by using 10 μM WAY100635 for 5-HT1A and 10 μM Methiothepin for 5-HT1B. The assay plates were incubated for 4 hours where after the plates are counted in a Wallac 1450 Microbeta Trilux counter (PerkinElmer LifeScience, US) or similar. Data from the experiments were analyzed using a four parameter logistic equation as follows: Y=Bottom+(Top-Bottom)/1+10^(LogEC50-X)nH.

In order of rising Ki:
1. CC(=O)N1CCc2cc(CCN3CCN(c4cccc5cc(C(=O)N6CCC6)oc45)CC3)ccc21 [Example 49, 1-(5-(2-(4-(2-(Azetidine-1-carbonyl)benzofuran-7-yl)piperazin-1-yl)ethyl)indolin-1-yl)ethanone]  160 pM
2. COc1ccnc(CCN2CCN(c3cccc4cc(C(=O)N(C)C)oc34)CC2)c1 [Example 39, 7-(4-(2-(4-Methoxypyridin-2-yl)ethyl)piperazin-1-yl)-N,N-dimethylbenzofuran-2-carboxamide]  320 pM
3. COc1cccc(CCN2CCN(c3cccc4cc(C(=O)N5CCC5)oc34)CC2)n1 [Example 45, Azetidin-1-yl(7-(4-(2-(6-methoxypyridin-2-yl)ethyl)piperazin-1-yl)benzofuran-2-yl)methanone]  340 pM
4. O=C(NCc1ccc2c(c1)OCO2)c1cc2cccc(N3CCN(CCc4ccccn4)CC3)c2o1 [Example 10, N-(Benzo[d][1,3]dioxol-5-ylmethyl)-7-(4-(2-(pyridin-2-yl)ethyl)piperazin-1-yl)benzofuran-2-carboxamide]  380 pM
5. O=C(NC1CC1)c1cc2cccc(N3CCN(CCc4ccccn4)CC3)c2o1 [Example 13, N-Cyclopropyl-7-(4-(2-(pyridin-2-yl)ethyl)piperazin-1-yl)benzofuran-2-carboxamide]  550 pM
6. Cn1cnc(CCNC(=O)c2cc3cccc(N4CCN(CCc5ccccn5)CC4)c3o2)c1 [Example 30, N-(2-(1-Methyl-1H-imidazol-4-yl)ethyl)-7-(4-(2-(pyridin-2-yl)ethyl)piperazin-1-yl)benzofuran-2-carboxamide]  1100 pM
7. CN(C)C(=O)c1cc2cccc(N3CCN(CCc4cc(C#N)ccn4)CC3)c2o1 [Example 41, 7-(4-(2-(4-Cyanopyridin-2-yl)ethyl)piperazin-1-yl)-N,N-dimethylbenzofuran-2-carboxamide]  1300 pM
8. CC(=O)N1CCC(NC(=O)c2cc3cccc(N4CCN(CCc5ccccn5)CC4)c3o2)CC1 [Example 6, N-(1-Acetylpiperidin-4-yl)-7-(4-(2-(pyridin-2-yl)ethyl)piperazin-1-yl)benzofuran-2-carboxamide]  6400 pM
